26 compounds from patent US8222219B2, “Glucopyranoside compound” (Mitsubishi Tanabe Pharma Corporation, priority 2003, dated 2012) can be followed below.

For test [1], the system named is Sprague-Dawley (SD) rats. Nature of the test: Urinary glucose excretion test in rats. The test is classed as in vivo, rat. The following applies: male SD rats, 30 mg/kg oral gavage, urine collected for 24 hours; daily amount of glucose excreted per individual. How it is done: 2. Urinary Glucose Excretion Test in Rats Test Compounds:
Compounds described in the above examples were used for the urinary glucose excretion test in rats.
6-week-old male Sprague-Dawley (SD) rats were housed in individual metabolic cages with free access to food and water from 2 days prior to the experiment. On the morning of the experiment, rats were administered vehicle (0.2% carboxymethyl cellulose solution containing 0.2% Tween80) or test compounds (30 mg/kg) by oral gavage at a volume of 10 ml/kg. Then, urine of the rat was collected for 24 hours, and the urine volume was measured. Subsequently, the glucose concentration in urine was quantified using the enzymatic assay kit and the daily amount of glucose excreted in urine per individual was calculated.

Test [2] has as its target T1, human SGLT2 (Homo sapiens, UniProt P31639).
T1 construct: expressed in transfected cells; host or cells: CHOK1 (CHO-K1) cells, kept under Geneticin selection
T1 sequence (P31639 1-672): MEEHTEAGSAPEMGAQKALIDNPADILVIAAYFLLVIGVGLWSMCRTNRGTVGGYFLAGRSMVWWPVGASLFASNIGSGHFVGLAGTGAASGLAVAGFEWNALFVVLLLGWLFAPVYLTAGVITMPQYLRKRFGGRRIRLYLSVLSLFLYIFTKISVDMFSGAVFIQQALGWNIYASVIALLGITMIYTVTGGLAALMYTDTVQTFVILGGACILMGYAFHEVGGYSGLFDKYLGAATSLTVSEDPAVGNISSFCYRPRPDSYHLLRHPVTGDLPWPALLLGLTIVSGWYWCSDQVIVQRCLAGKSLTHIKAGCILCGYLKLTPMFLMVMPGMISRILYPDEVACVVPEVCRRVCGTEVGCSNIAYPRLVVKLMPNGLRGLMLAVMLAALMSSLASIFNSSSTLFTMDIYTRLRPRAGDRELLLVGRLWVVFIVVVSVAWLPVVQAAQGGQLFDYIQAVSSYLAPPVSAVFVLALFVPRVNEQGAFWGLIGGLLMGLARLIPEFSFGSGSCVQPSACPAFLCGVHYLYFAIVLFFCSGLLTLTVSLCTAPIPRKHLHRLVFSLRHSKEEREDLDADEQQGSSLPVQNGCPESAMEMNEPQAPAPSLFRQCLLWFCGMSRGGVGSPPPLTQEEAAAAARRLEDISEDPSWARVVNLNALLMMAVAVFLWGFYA
Nature of the test: Assay for SGLT2 inhibition (14C-AMG uptake in CHOK1 cells expressing human SGLT2). Format: cell-based. Particulars: 14C-AMG uptake 0.5 mM, 2 hours at 37° C. As to the method: 1. Assay for SGLT2 Inhibition
Compounds described in the above examples were used for the SGLT2 inhibition assay.
CHOK1 cells expressing human SGLT2 were seeded in 24-well plates at a density of 400,000 cells/well in F-12 nutrient mixture (Ham's F-12) containing 10% fetal bovine serum, 400 μg/ml Geneticin, 50 units/ml sodium penicillin G (Gibco-BRL) and 50 μg/ml streptomycin sulfate. […] Test compounds were dissolved in DMSO. The final concentration of DMSO was 0.5%. The transport reaction was initiated by addition of 50 μl [^14C]-methyl-α-D-glucopyranoside (^14C-AMG) solution (final concentration, 0.5 mM). After incubation for 2 hours at 37° C., the uptake was stopped by aspiration of the incubation mixture, the cells were washed three times with ice-cold PBS. Then, cells were solubilized with 0.3 N NaOH and aliquots were taken for determination of radioactivity by a liquid scintillation counter. Nonspecific AMG uptake was defined as that which occurred in the presence of 100 μM of phlorizin, a specific inhibitor of sodium-dependent glucose cotransporter. Specific uptake was normalized for the protein concentrations measured by the method of Bradford.

pIC50: −log10 of the molar value.

In the case of `OC[C@H]1O[C@@H](c2ccc(Cl)c(Cc3ccc(-c4ccnc(F)c4)s3)c2)[C@H](O)[C@@H](O)[C@@H]1O` [Example 216], in test [1], the Urinary glucose result is listed as “A (A≧2000 mg)”. Take `CCOc1ccc2cc(Cc3cc([C@@H]4O[C@H](CO)[C@@H](O)[C@H](O)[C@H]4O)ccc3C)sc2c1` [Example 228]: the Urinary glucose entry in test [1] is “B (2000 mg>B≧1000 mg)”. Still for that read-out and setting: under `CCOc1ccc(-c2ccc(Cc3cc([C@@H]4O[C@H](CO)[C@@H](O)[C@H](O)[C@H]4O)ccc3C)s2)cc1` [Example 232] stands “B (2000 mg>B≧1000 mg)”.

In the case of `OC[C@H]1O[C@@H](c2ccc(Cl)c(Cc3ccc(-c4cccc(Cl)c4)s3)c2)[C@H](O)[C@@H](O)[C@@H]1O` [Example 88], the Urinary glucose entry in test [1] was “B (2000 mg>B≧1000 mg)”. The same measure, in the same setting: the value for `OC[C@H]1O[C@@H](c2ccc(Cl)c(Cc3ccc(-c4cscn4)s3)c2)[C@H](O)[C@@H](O)[C@@H]1O` [Example 207] was “A (A≧2000 mg)”; that for `Cc1nc(-c2ccc(Cc3cc([C@@H]4O[C@H](CO)[C@@H](O)[C@H](O)[C@H]4O)ccc3Cl)s2)cs1` [Example 252] was “B (2000 mg>B≧1000 mg)”. As for `Cc1ccc([C@@H]2O[C@H](CO)[C@@H](O)[C@H](O)[C@H]2O)cc1Cc1ccc(-c2ccc(OC(F)F)cc2)s1` [Example 237], the Urinary glucose result in test [1] is given as “B (2000 mg>B≧1000 mg)”. On the same count and under the same terms, the value for `COc1ccc2cc(Cc3cc([C@@H]4O[C@H](CO)[C@@H](O)[C@H](O)[C@H]4O)ccc3C)sc2c1` [Example 238] was “A (A≧2000 mg)”. In the case of `OC[C@H]1O[C@@H](c2ccc(Cl)c(Cc3ccc(-n4cccn4)s3)c2)[C@H](O)[C@@H](O)[C@@H]1O` [Example 214], the Urinary glucose entry in test [1] was “B (2000 mg>B≧1000 mg)”. Also, the pIC50 in test [2] was 8.82. On to `COc1ccc(-c2ccc(Cc3cc([C@@H]4O[C@H](CO)[C@@H](O)[C@H](O)[C@H]4O)ccc3C)s2)cn1` [Example 209], for which the Urinary glucose result in test [1] was “B (2000 mg>B≧1000 mg)”.

As to `Cc1ccc([C@@H]2O[C@H](CO)[C@@H](O)[C@H](O)[C@H]2O)cc1Cc1ccc(-c2ccnc(F)c2)s1` [Example 217], the Urinary glucose entry in test [1] was “B (2000 mg>B≧1000 mg)”. Regarding `COc1cccc(-c2ccc(Cc3cc([C@@H]4O[C@H](CO)[C@@H](O)[C@H](O)[C@H]4O)ccc3C)s2)n1` [Example 208], in test [1], the Urinary glucose entry is reported as “A (A≧2000 mg)”. Same read-out and setting: under `COc1ccc2sc(Cc3cc([C@@H]4O[C@H](CO)[C@@H](O)[C@H](O)[C@H]4O)ccc3C)cc2c1` [Example 229] stands “B (2000 mg>B≧1000 mg)”; under `Cc1ccc([C@@H]2O[C@H](CO)[C@@H](O)[C@H](O)[C@H]2O)cc1Cc1ccc(-c2cccc(Cl)c2)s1` [Example 89], “B (2000 mg>B≧1000 mg)”; under `CCOc1ccc2sc(Cc3cc([C@@H]4O[C@H](CO)[C@@H](O)[C@H](O)[C@H]4O)ccc3C)cc2c1` [Example 231], “B (2000 mg>B≧1000 mg)”. The same measure, in the same setting: the value for `Cc1ccc([C@@H]2O[C@H](CO)[C@@H](O)[C@H](O)[C@H]2O)cc1Cc1ccc(-n2cccn2)s1` [Example 227] was “B (2000 mg>B≧1000 mg)”; that for `Cc1ccc([C@@H]2O[C@H](CO)[C@@H](O)[C@H](O)[C@H]2O)cc1Cc1cc2ccc(OCCF)cc2s1` [Example 235] was “A (A≧2000 mg)”; that for `Cc1ccc([C@@H]2O[C@H](CO)[C@@H](O)[C@H](O)[C@H]2O)cc1Cc1ccc(-c2cccc(F)c2)s1` [Example 83] was “A (A≧2000 mg)”. For the compound `Cc1ccc([C@@H]2O[C@H](CO)[C@@H](O)[C@H](O)[C@H]2O)cc1Cc1ccc(-c2cscn2)s1` [Example 210], the Urinary glucose entry in test [1] was “B (2000 mg>B≧1000 mg)”.

For `OC[C@H]1O[C@@H](c2ccc(F)c(Cc3ccc(-c4cccc(F)n4)s3)c2)[C@H](O)[C@@H](O)[C@@H]1O` [Example 248], the Urinary glucose entry in test [1] was “B (2000 mg>B≧1000 mg)”.

On to `OC[C@H]1O[C@@H](c2ccc(Cl)c(Cc3ccc(-c4ccc(F)cc4)s3)c2)[C@H](O)[C@@H](O)[C@@H]1O` [Example 70], for which the Urinary glucose entry in test [1] is on record as “A (A≧2000 mg)”. On to `OC[C@H]1O[C@@H](c2ccc(Cl)c(Cc3ccc(-c4ccccc4F)s3)c2)[C@H](O)[C@@H](O)[C@@H]1O` [Example 69], for which the Urinary glucose entry in test [1] is on record as “B (2000 mg>B≧1000 mg)”. On the same count and under the same terms, the value for `Cc1ccc([C@@H]2O[C@H](CO)[C@@H](O)[C@H](O)[C@H]2O)cc1Cc1cc2cc(OCCF)ccc2s1` [Example 230] was “A (A≧2000 mg)”; that for `Cc1ccc([C@@H]2O[C@H](CO)[C@@H](O)[C@H](O)[C@H]2O)cc1Cc1ccc(-c2ccc(F)cc2)s1` [Example 84] was “A (A≧2000 mg)”.

In test [2], `Cc1ccc([C@@H]2O[C@H](CO)[C@@H](O)[C@H](O)[C@H]2O)cc1Cc1ccc(-c2cncs2)s1` [Example 218] showed a pIC50 of 8.62. In the case of `OC[C@H]1O[C@@H](c2ccc(Cl)c(Cc3ccc(-c4cncs4)s3)c2)[C@H](O)[C@@H](O)[C@@H]1O` [Example 204], in test [1], the Urinary glucose result is recorded as “A (A≧2000 mg)”.

As usually defined, the pIC50 is the IC50 on a negative log10 scale, so that one unit is a factor of ten.
